In this data set the test system is human maximum recommended daily dose, FDA database. In words: DSSTox (FDAMDD) FDA Maximum (Recommended) Daily Dose Database. As to conditions: hits give low values. The source says: The Food and Drug Administration (FDA) Center for Drug Evaluation and Research, Office of Pharmaceutical Science, Informatics and Computational Safety Analysis Staff's Maximum Recommended Daily Dose (FDAMDD) database contains values for over 1200 pharmaceuticals listed in Martindale: The Extra Pharmacopoeia (1973, 1983, and 1993) and The Physicians' Desk Reference (1995 and 1999). Some classes of chemicals were excluded from the FDAMDD database due to their unsuitability for most QSAR modeling programs. These were inorganic chemicals, high molecular weight polymers (>5000 Daltons), fibers, salts, mixtures of organic chemicals, and small molecules (<100 Daltons). FDAMDD is the non-proprietary portion of the database that was used in the QSAR analysis reported in the Main Citation. DSSTox FDAMDD has fewer substance records than the original MRDD Source database due to consolidation of partial structures (i.e., complexed entities) into a single record and elimination of duplicate entries. […]
Maximum recommended daily dose (or maximum recommended therapeutic dose) values were determined from pharmaceutical clinical trials that employed an oral route of exposure and daily treatments, usually for 3-12 months. […]

`O=[N+]([O-])OC[C@H](O[N+](=O)[O-])[C@@H](CO[N+](=O)[O-])O[N+](=O)[O-]`: the maximum recommended daily dose (mmol/kg-bw/day) (TherapeuticCategory: coronary vasodilator) is 0.00553.
Turning to `O=[N+]([O-])OCC(CO[N+](=O)[O-])(CO[N+](=O)[O-])CO[N+](=O)[O-]`, the maximum recommended daily dose (mmol/kg-bw/day) (TherapeuticCategory: vasodilator) is 0.0127.

The values above are taken from PubChem BioAssay AID1195 (EPA DSSTox, 2008).
